Data on two compounds can be found in patent US8114862B2, “TGR5 modulators and methods of use thereof” (Intercept Pharmaceuticals, Inc., priority 2008, dated 2012).

Where two headings read alike, the source gives them in different places.

Series [1] is described as follows: Biliary secretion and hepatic metabolism in bile fistula rat after femoral infusion (Example 22). The conditions noted are these: iv infusion. The series is classed as in vivo.

For the compound `CC[C@H]1[C@@H](O)[C@@H]2[C@H](C[C@H](O)[C@]3(C)[C@@H]([C@H](C)C[C@H](C)C(=O)O)CC[C@@H]23)[C@@]2(C)CC[C@@H](O)C[C@@H]12` [Ih3e, 6α-ethyl-(23S)-methyl-3α,7α,12α trihydroxy-5β-cholan-24-oic acid], the hepatic metabolism entry in series [1] was “only slightly metabolized by the liver”; the hepatic metabolism entry (iv and id administration) was “only slightly metabolized by the liver”. For the same compound, the intestinal absorption entry (summary of Example 12) is “efficient, even if it is not complete”.

With `CC[C@H]1[C@@H](O)[C@@H]2[C@H](C[C@H](O)[C@]3(C)[C@@H]([C@H](C)C[C@@H](C)C(=O)O)CC[C@@H]23)[C@@]2(C)CC[C@@H](O)C[C@@H]12` [Ii3e, 6α-ethyl-(23R)-methyl-3α,7α,12α trihydroxy-5β-cholan-24-oic acid], the hepatic metabolism result in series [1] is listed as “metabolized by the liver more extensively than compound Ih3e”.
